For this assay, the target named is Kappa-type opioid receptor (Cavia porcellus, UniProt P41144). The assay can be described thus: Displacement of [3H]U69593 from guinea pig kappa opioid receptor by liquid scintillation counting. In outline: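 Receptor membrane suspension incubated with 3 nM [3H]U69,593 as the tritiated competitor. Unlabeled U50,488 served as the kappa standard: it generated a standard curve on every plate and defined nonspecific binding. IC50 values came from dose-response testing.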

The chains behind the UniProt entries cited, without tags or fusion partners. Where a name states a change or a piece, a line headed by the entry shows the natural chain unless it says otherwise.
UniProt P41144: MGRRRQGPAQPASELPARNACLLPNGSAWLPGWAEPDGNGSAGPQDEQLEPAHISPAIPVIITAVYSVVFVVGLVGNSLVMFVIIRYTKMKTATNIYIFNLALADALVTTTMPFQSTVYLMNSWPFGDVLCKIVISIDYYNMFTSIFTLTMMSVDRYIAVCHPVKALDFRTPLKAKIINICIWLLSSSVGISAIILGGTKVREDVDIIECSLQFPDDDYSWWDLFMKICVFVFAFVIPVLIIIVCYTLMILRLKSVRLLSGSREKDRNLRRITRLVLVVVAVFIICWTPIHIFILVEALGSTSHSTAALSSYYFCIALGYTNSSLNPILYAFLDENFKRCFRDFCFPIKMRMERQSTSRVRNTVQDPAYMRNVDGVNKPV

Results on one compound are retold here after ChEMBL document CHEMBL1154110, “Identification, structure-activity relationships and molecular modeling of potent triamine and piperazine opioid ligands” (Bioorg Med Chem, 2009).

On to `CCC[C@H](CN[C@H](CNC)Cc1ccc(O)cc1)NCC1CCCCCC1`, for which the IC50 was found to be 25 nM.
